These results are taken from patent publication US12049482B2, “Molecular switch-mediated control of engineered cells” (THE GENERAL HOSPITAL CORPORATION, priority 2017, dated 2024).

Chains of the proteins cited; added tags and fusions are not shown. A change or cut given only in a name is not applied to a line headed by its entry. A line that says so, or that is headed by a name, gives the form on record, which may keep a tag or linker.
UniProt Q96SW2: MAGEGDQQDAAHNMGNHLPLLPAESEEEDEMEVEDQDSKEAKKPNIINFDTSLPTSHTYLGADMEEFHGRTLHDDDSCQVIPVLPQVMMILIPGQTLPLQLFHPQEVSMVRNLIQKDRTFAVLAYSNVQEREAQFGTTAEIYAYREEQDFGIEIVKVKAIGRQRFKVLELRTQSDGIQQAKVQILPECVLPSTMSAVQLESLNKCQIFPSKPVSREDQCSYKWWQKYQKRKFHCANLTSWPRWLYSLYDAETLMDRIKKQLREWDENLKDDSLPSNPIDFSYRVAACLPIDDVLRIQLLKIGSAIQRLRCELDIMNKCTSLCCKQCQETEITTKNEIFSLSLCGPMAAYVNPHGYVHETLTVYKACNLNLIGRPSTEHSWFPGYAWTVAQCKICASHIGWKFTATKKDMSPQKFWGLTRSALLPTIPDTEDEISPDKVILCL
CRBN (Homo sapiens, UniProt Q96SW2), as listed by the source partner: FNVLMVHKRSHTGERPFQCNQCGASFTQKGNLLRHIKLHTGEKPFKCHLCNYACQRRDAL

The target of experiment [1] is T1, CRL4^CRBN (Homo sapiens, UniProt Q96SW2).
T1 construct: endogenous in cells; host or cells: Jurkat T cells (ligase endogenous; degron-eGFP reporters lentivirally transduced)
Nature of the experiment: GFP/mCherry reporter assay for degradation of degron-eGFP fusion proteins in Jurkat T cells. Format: cell-based. To be noted: by 3 hours after addition of 1 μM pomalidomide. The method, then: First, the FMC63 anti-CD19 scFv was exchanged for the CD28 Ig-like V-type extracellular domain. […] Experiments were performed in triplicate.
[…] Cells were analyzed by flow cytometry for eGFP and mCherry fluorescence. 1000 mCherry+ cells were analyzed per sample, and the geometric mean of the per-cell eGFP/mCherry ratio was calculated in Flowjo. In Pomalidomide dose titration studies, the EC50 was calculated by non-linear regression in Prism. Experiments were performed in triplicate. In some cases cell surface protein expression was assayed in parallel with the above reporter assay; cells were stained with anti-CD28-BV421 antibody (BD Biosciences 562613) at a 1:50 dilution in FACS buffer (PBS+2% FCS+2 mM EDTA) for 10 minutes on ice. Cells were washed with FACS buffer and analyzed by flow cytometry.
First, the FMC63 anti-CD19 scFv was exchanged for the CD28 Ig-like V-type extracellular domain.

For experiment [2], the target named is CRBN (Homo sapiens, UniProt Q96SW2). Nature of the experiment: Internalization and degradation of CD28-degron-GFP in 293T cells. In kind it is cell-based. Also on record: endogenous in cells; host or cells: 293T (CRBN endogenous; control cells 293T-CRBNΔe5 lack it). The method, then: Transduced cells were incubated with a range of Pomalidomide concentrations or DMSO for 20 hours. Cells were analyzed by flow cytometry for eGFP and mCherry fluorescence. 1000 mCherry+ cells were analyzed per sample, and the geometric mean of the per-cell eGFP/mCherry ratio was calculated in Flowjo. In Pomalidomide dose titration studies, the EC50 was calculated by non-linear regression in Prism. Experiments were performed in triplicate. In some cases cell surface protein expression was assayed in parallel with the above reporter assay; cells were stained with anti-CD28-BV421 antibody (BD Biosciences 562613) at a 1:50 dilution in FACS buffer (PBS+2% FCS+2 mM EDTA) for 10 minutes on ice. Cells were washed with FACS buffer and analyzed by flow cytometry.
As shown in FIG. 13 an OFF-switch CAR construct was designed that presents an engineered element capable of causing intracellular degradation of the CAR in a precise, input-responsive manner. The input-responsive element is referred to as an “engineered degron,” and the input to which the degron responds in certain aspects of the instant disclosure is an IMiD (e.g., pomalidomide).

Take “CD28-CD3ζ-degron: Fusion of full length CD28, intracellular domain of CD3z and IKZF3 (amino acids 130-189); SEQ ID NO: 83”: the “degradation of degron-eGFP protein” value in experiment [1] is around 80%.
For the substance “CD28-degron: In frame fusion of full length CD28, a SG linker, and IKZF3 (amino acids 130-189); SEQ ID NO: 82”, the “degradation (normalized GFP signal)” value in experiment [2] (10 μM pomalidomide, 293T cells expressing wild-type CRBN) was “dramatic degradation effect”. Further, in experiment [2] (20h pomalidomide treatment), the cell surface internalization result is listed as “internalized upon treatment with pomalidomide in a CRBN-dependent manner”.
